Assay: Multi-component pharmacokinetic study of GQD, GQD-GC and single herb extracts in rats (plasma, LC/MS/MS)
Type: in vivo, Sprague-Dawley rats
Conditions: for AUClast / Cmax / T1/2 / Tmax: plasma; for plasma concentrations, effect of GQD compared with Gan-Cao: rats, oral
Experimental: Male Sprague-Dawley rats (220–250 g) were used for PK study, and the details were described in Supplemental Data. All procedures were in accordance with the National Institutes of Health Guide for the Care and Use of Laboratory Animals.
For PK study of GQD and its component herbs, rats were randomly divided into six groups (n = 10 for each group) before oral administration.
All blood samples were immediately centrifuged at 6,000 rpm (4°C) for 20 min to obtain plasma. The plasma samples were stored at −80°C.
A Finnigan TSQ Quantum triple quadrupole mass spectrometer was connected to a Surveyor HPLC via ESI interface (ThermoFisher). High purity nitrogen was used as the sheath and auxiliary gas; Ultra-high purity argon was used as the collision gas (1.5 mTorr). Q1 and Q3 quadrupoles were set at unit resolution. […] The column temperature was 40°C. The mobile phase consisted of acetonitrile containing 2% (v/v) methanol (A) and water containing 0.1% (v/v) formic acid (B). […] An aliquot of 5 μL was injected for analysis. UV spectra were obtained by scanning from 200 to 400 nm. The mass spectrometer was operated in the (+)-ESI mode. The optimized parameters were as follows: sheath gas (N2), 50 arb; auxiliary gas (N2), 5 arb; spray voltage, 4.0 kV; capillary temperature, 330°C; collision energy, see Table S1. Analytes were detected in the selected reaction monitoring (SRM) mode. Data were processed by Xcalibur 2.0.7 software (ThermoFisher).
LC/MS/MS calibration and quantitation data were processed with Xcalibur 2.0.7 software (ThermoFisher). The maximal plasma concentrations (Cmax) and their time of occurrence (Tmax) were obtained directly from the measured data. Other pharmacokinetic parameters were calculated by non-compartment or compartment models using WinNonlin® software (v6.1, Pharsight). Unless otherwise stated, results were expressed as the mean ± SD. Statistical significance in differences of the means was determined by Student's t–test, with a significance level of P < 0.05.
Herbal materials and extracts.
The four component herbs, Puerariae Lobatae Radix (Ge-Gen, GG), Scutellariae Radix (Huang-Qin, HQ), Coptidis Rhizoma (Huang-Lian, HL), and Glycyrrhizae Radix et Rhizoma Praeparata cum Melle (Gan-Cao, GC) were purchased from Tianheng Pharmacy. GQD was prepared by decocting the four component herbs […]
pre-extraction of Ge-Gen using 200 mL of water for 0.5 h. The decoctions were combined, filtered, and concentrated in vacuum at 50 °C. GQD-GC was prepared using the same procedure, except that Gan-Cao was removed from the formula. Final concentration of the GQD-GC extract was equivalent to 1.0 g of the crude drugs per mL. For single herb extracts, the herbs were decocted in 8-fold volume of water for […]
Final concentrations of the extracts were 1.0 g/mL for Ge-Gen, and 0.5 g/mL for Huang-Qin, Huang-Lian and […]
For pharmacokinetic study, Male Sprague-Dawley rats (220-250 g) were obtained from the Laboratory Animal Center of Peking University Health Science Center. The […]
The rats had free access to tap water and soy-free custom diet (Ke’ao Xieli Co.). All procedures were in accordance with the National Institutes of Health Guide for the Care and Use of Laboratory Animals […]
Experimental details for the PK study
1. Preparation of internal standard solution, calibration standard solutions, and quality control solutions […]
internal standard solution. Reference standard compounds were dissolved in the internal standard solution to prepare individual stock solutions (1.0 mg/mL). These […]
each compound. The standard solution was then serially diluted to obtain calibration […]
Quality control stock solutions were prepared at three concentration levels as high QC (HQC), middle QC (MQC), and low QC (LQC), based on linear ranges of the analytes.
2.1. Sample preparation for pharmacokinetic study
The calibration standard and quality control solutions for pharmacokinetic study were […]

[1] = GC (Gan-Cao) group: rats, oral extract 2.36 g/kg
[2] = GQD group: rats, oral GQD extract 18.9 g/kg

| Substance | AUClast [1] [ng·h/mL] | Cmax [1] [ng/mL] | T1/2 [1] [h] | Tmax [1] [h] | AUClast [2] [ng·h/mL] | Cmax [2] [ng/mL] | T1/2 [2] [h] | Tmax [2] [h] | plasma concentrations, effect of GQD compared with Gan-Cao | AUClast (GQD group: rats, oral GQD 18.9 g/kg (1.5-fold of clinical dosage)) [ng·h/mL] |
| --- | --- | --- | --- | --- | --- | --- | --- | --- | --- | --- |
| isoliquiritin apioside [Compound 34] | 32.49 ± 5.6 | 2.67 ± 1.33 | 6.05 ± 0.89 | 2.89 ± 0.76 | 40.83 ± 10.23 | 3.28 ± 1.23 | 5.35 ± 1.41 | 3.68 ± 8.09 | improved |  |
| liquiritin apioside [Compound 33] | 278.49 ± 1.41 | 13.53 ± 0.78 | 13.11 ± 6.66 | 1.59 ± 0.09 | 514.13 ± 7.53 | 12.6 ± 0.14 | 15.43 ± 2.23 | 2.09 ± 0.24 | improved | > 300 |

Source: paper PMC6018403 (Frontiers in Pharmacology, 2018)
